From PubChem BioAssay AID449763 (Sanford-Burnham Center for Chemical Genomics, 2010)
This is a selection; strong and weak results do not stand in their true shares. Activity calls are given as the source filed them.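 Rule for the calls: active = at 10 µM dose, activation of 40% or more, normalized to positive control; inactive = the rest.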

experiment: activators of apoptotic CHOP UPR arm, primary screen, cell-based, CHO-CHOP luciferase reporter, luminescence, uHTS (AID 449763); conditions: at 10 µM, active compounds read high, percent of tunicamycin response over DMSO baseline;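 note: 100% = tunicamycin at 10 µg/mL and 0% = DMSO alone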
In short: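 Material: CHO-CHOP cells, stable luciferase reporter of PERK-eIF2a-CHOP signalling; quantity: 500 reporter cells seeded per well; buffer or medium: F12 medium containing 10% fetal bovine serum; compound: one dose, 10 µM in 0.5% DMSO; incubation: 6 h compound treatment, 37 °C; measured by: Steady-Glo luciferase luminescence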

For `COc1cc(C(=O)NCC2(N3CCOCC3)CCCCC2)cc(Cl)c1OC(C)C`, which activation is on record?
Its activation is inactive: 0.863%.

Which activation does the source give for `O=[As](O)(O)c1cccnc1` here?
Its activation is inactive: -0.136%.

For `CS(=O)(=O)c1ccc(Cl)c(NC(=O)COC(=O)C(O)(c2ccccc2)c2ccccc2)c1`, which activation is on record?
The activation was inactive: -0.778%.

Which activation does the source give for `O=C(OC1CN2CCC1CC2)c1ccc(Cl)cc1` (configuration not stated) here?
The activation was inactive: 0.5%.

With `CN(C)C(=O)c1cc([N+](=O)[O-])cc2c1-c1c(cc([N+](=O)[O-])cc1[N+](=O)[O-])C2=O` as the compound, how does the activation read?
Its activation is inactive: -10.4%.

With `O=[N+]([O-])c1ccc2c(c1)nnn2O` as the compound, how does the activation read?
Its activation is inactive: 0.273%.

Which activation does the source give for `CN(C(=O)Cc1ccc(Cl)c(Cl)c1)[C@H]1CC[C@@]2(CCCO2)C[C@@H]1N1CCCC1` here?
The activation was inactive: 1.54%.

Which activation does the source give for `N#CCCN(C(=O)COC(=O)C(O)(c1ccccc1)c1ccccc1)c1ccc(F)cc1` here?
Its activation is inactive: 4.89%.

For `CCOP1(=S)c2c(C)nn(CCC#N)c2N=C(c2ccc(F)cc2)N1C` (configuration not stated), which activation is on record?
The activation was inactive: -0.762%.

Which activation does the source give for `CN(C(=O)Cc1ccccc1)[C@@H]1CC[C@]2(CCCO2)C[C@H]1N1CCCC1` here?
Its activation is inactive: -0.926%.

With `NC(=O)Nc1ccc([As](=O)(O)O)cc1` as the compound, how does the activation read?
The activation was inactive: 3.88%.

For `Nc1ccccc1[As](=O)(O)c1ccccc1`, which activation is on record?
The activation was inactive: -0.45%.

For `O=C(O)COc1ccc([As](=O)(O)O)cc1[N+](=O)[O-]`, which activation is on record?
Its activation is inactive: -3.64%.

For `CS(=O)(=O)c1cc([N+](=O)[O-])c2no[n+]([O-])c2c1`, which activation is on record?
Its activation is inactive: 1.68%.

For `CCOP1(=S)c2c(C)nn(CCC#N)c2N=C(c2ccccc2F)N1C` (configuration not stated), which activation is on record?
The activation was inactive: 2.19%.

For `O=P(Nc1nccs1)(c1ccccc1)c1nc2ccccc2s1` (configuration not stated), which activation is on record?
Its activation is inactive: 1.51%.

For `O=P(Nc1nccs1)(Oc1ccccc1)Oc1ccccc1`, which activation is on record?
Its activation is inactive: -1.65%.

Which activation does the source give for `O=C(OC1CN2CCC1CC2)c1cccc2[nH]cnc12` (configuration not stated) here?
The activation was inactive: -1.24%.

With `CCN(CC)C(=S)SC(NC=O)C(Cl)(Cl)Cl` (configuration not stated) as the compound, how does the activation read?
Its activation is active: 183%.

With `CC(C)NC(=O)NP(=O)(Oc1ccccc1)Oc1ccccc1` as the compound, how does the activation read?
The activation was inactive: -0.474%.

For `O=[N+]([O-])c1cc([N+](=O)[O-])c(-c2ccn[nH]2)s1`, which activation is on record?
Its activation is inactive: -0.139%.

With `CC(C)c1ccc(OP(=O)(Nc2ccccn2)Oc2ccccc2F)cc1` (configuration not stated) as the compound, how does the activation read?
Its activation is inactive: 0.848%.

For `ClCCSc1nnc(-c2cccnc2)o1`, which activation is on record?
The activation was inactive: -0.653%.

With `Cc1ccc2nc3c(c(C)c2c1)CC(C(Cl)Cl)S3` (configuration not stated) as the compound, how does the activation read?
The activation was inactive: 4.92%.

For `Cc1ccc(OP(=O)(Nc2ccc([N+](=O)[O-])cn2)Oc2ccc(C)cc2)cc1`, which activation is on record?
Its activation is inactive: -0.223%.

Which activation does the source give for `C[As](=O)(O)c1cccc(C(=O)O)c1` here?
The activation was inactive: -1.77%.

Which activation does the source give for `O=[As](O)(c1ccc(O)cc1)c1ccccc1O` here?
Its activation is inactive: 0.0762%.

For `COc1cc(C(=O)NCC2(N3CCOCC3)CCCCC2)ccc1OCC(C)C`, which activation is on record?
The activation was inactive: -1.26%.

For `COc1ccc(N/C(=N/P(=O)(N2CCOCC2)N2CCOCC2)N2CCOCC2)cc1`, which activation is on record?
Its activation is inactive: 0.153%.

With `COc1ccc2nc(NP(=O)(c3ccccc3)c3ccccc3)sc2c1` as the compound, how does the activation read?
Its activation is inactive: -1.28%.

For `COc1cc(I)ccc1[As](=O)(O)O`, which activation is on record?
Its activation is inactive: 0.791%.

With `O=C(OC1CN2CCC1CC2)C12CC3CC(CC(C3)C1)C2` (configuration not stated) as the compound, how does the activation read?
Its activation is inactive: -0.0224%.

Which activation does the source give for `Cc1cc(=O)[nH]c(N[N+](=O)[O-])n1` here?
The activation was inactive: -2.05%.

For `Cc1c2c(nc3ccccc13)SC(C(Cl)Cl)C2` (configuration not stated), which activation is on record?
Its activation is inactive: 1.12%.

For `CCC(C)N(CC(C)C)C(=S)SC(NC(C)=O)C(Cl)(Cl)Cl` (configuration not stated), which activation is on record?
The activation was inactive: 2.55%.

For `CCOC(=O)c1ccc(NC(=O)C(C)(CCl)SC)cc1` (configuration not stated), which activation is on record?
The activation was inactive: 0.24%.

For `O=C(OC1CN2CCC1CC2)c1cccc([N+](=O)[O-])c1` (configuration not stated), which activation is on record?
The activation was inactive: 1.94%.

For `O=C(COc1ccccc1)OC1CN2CCC1CC2` (configuration not stated), which activation is on record?
Its activation is inactive: -0.786%.

With `O=C(Nc1ccncc1[N+](=O)[O-])c1ccc([N+](=O)[O-])cc1[N+](=O)[O-]` as the compound, how does the activation read?
Its activation is inactive: -0.983%.

For `COP1(=S)c2c(C)nn(CCC#N)c2N=C(c2ccc(F)cc2)N1C` (configuration not stated), which activation is on record?
Its activation is inactive: -2.36%.

Which activation does the source give for `O=P(Nc1ccccn1)(c1cccc2ccccc12)c1cccc2ccccc12` here?
Its activation is inactive: -0.616%.

Which activation does the source give for `Cc1cc(SC(NC=O)C(Cl)(Cl)Cl)ncn1` (configuration not stated) here?
The activation was inactive: -0.819%.

With `CCOC(=O)Nc1cccc([As](=O)(O)O)c1` as the compound, how does the activation read?
The activation was inactive: -0.185%.

With `CCCCOc1ccc(C(=O)NCC2(N3CCCCC3)CCCCC2)cc1OC` as the compound, how does the activation read?
Its activation is inactive: 1.87%.

With `Cc1cc(SC(NC(=O)c2ccccc2)C(Cl)(Cl)Cl)nc(C(C)C)n1` (configuration not stated) as the compound, how does the activation read?
The activation was inactive: 1.5%.

With `CCOC(=O)Nc1ccc([As](=O)(O)O)c(O)c1` as the compound, how does the activation read?
The activation was inactive: 5.12%.

With `O=[N+]([O-])c1cccc(NC2=NCC(CBr)S2)c1` (configuration not stated) as the compound, how does the activation read?
Its activation is inactive: -0.159%.

Which activation does the source give for `CC(C)(C)C(=O)NC(Sc1ccncn1)C(Cl)(Cl)Cl` (configuration not stated) here?
Its activation is inactive: -2.18%.

For `O=[N+]([O-])c1ncn(CCn2ncnc2[N+](=O)[O-])n1`, which activation is on record?
The activation was inactive: 1.71%.

Which activation does the source give for `O=C(Nc1cc([As](=O)(O)O)ccc1O)c1ccccc1` here?
The activation was inactive: 1.95%.

With `CC(C)=N/N=C(\N)N[N+](=O)[O-]` as the compound, how does the activation read?
The activation was inactive: -1.44%.

Which activation does the source give for `CN(C)C(=O)OCCc1n(C)cc[n+]1C` here?
The activation was inactive: 3.58%.

With `CC1CCN(C(=O)Oc2c(Cl)cc(Cl)c3cccnc23)CC1` as the compound, how does the activation read?
The activation was inactive: -3.79%.

With `Nc1ccc([As](=O)(O)c2ccc(N)cc2)cc1` as the compound, how does the activation read?
Its activation is inactive: 2.34%.

With `C[N+]1=C2C=CC=CC=C2SC12C([N+](=O)[O-])=CC([N+](=O)[O-])=C[C-]2[N+](=O)[O-]` (configuration not stated) as the compound, how does the activation read?
Its activation is active: 320%.

With `CCN(/C(=N/P(=O)(N1CCOCC1)N1CCOCC1)N1CCOCC1)c1ccc(OC)cc1` as the compound, how does the activation read?
The activation was inactive: -0.255%.

For `O=[N+]([O-])c1cccc2n[nH]nc12`, which activation is on record?
Its activation is inactive: -1.03%.

For `CC(=O)N1C2C3N(C(C)=O)C1C1N(C(C)=O)C(C(N1C(C)=O)N3C(C)=O)N2C(C)=O`, which activation is on record?
Its activation is inactive: 0.163%.

Which activation does the source give for `Cc1ccc(NP(=O)(Oc2ccccc2)Oc2ccccc2)nc1` here?
The activation was inactive: -0.638%.

With `CCc1nc2c(n1)c1c(non1O)c1c2no[n+]1[O-]` as the compound, how does the activation read?
The activation was inactive: 33.3%.

For `O=[N+]([O-])c1cc([N+](=O)[O-])c(CCNc2ccccc2)c([N+](=O)[O-])c1`, which activation is on record?
The activation was inactive: 0.797%.

For `COc1ccc(C2=NCC(CBr)S2)cc1` (configuration not stated), which activation is on record?
Its activation is inactive: 0.424%.
